Chains of the proteins cited; added tags and fusions are not shown.
UniProt P30680, whole entry: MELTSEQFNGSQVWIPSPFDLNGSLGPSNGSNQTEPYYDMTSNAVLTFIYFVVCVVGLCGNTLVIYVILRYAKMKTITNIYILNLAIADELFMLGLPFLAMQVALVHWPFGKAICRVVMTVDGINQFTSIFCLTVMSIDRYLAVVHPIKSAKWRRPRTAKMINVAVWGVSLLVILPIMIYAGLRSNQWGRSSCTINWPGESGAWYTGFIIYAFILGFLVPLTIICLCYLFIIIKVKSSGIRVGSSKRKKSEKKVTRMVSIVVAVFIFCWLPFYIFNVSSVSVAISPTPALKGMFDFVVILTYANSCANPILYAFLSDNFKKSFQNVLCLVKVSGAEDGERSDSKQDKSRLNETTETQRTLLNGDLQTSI

In US5225543A, “Receptors method for purification of G protein-linked” (priority 1991, dated 1993):

Target: SRIF receptor (GH4 C1 membranes) (Rattus norvegicus, UniProt P30680)
Assay: Purification method as receptor assay: binding of biotinyl-S28 to GH4 C1 membranes (FIG. 10)
Settings: 10,000 nM non-biotinylated SRIF-14

C[C@H](N)C(=O)NCC(=O)N[C@H]1CSSC[C@@H](C(=O)O)NC(=O)[C@H](CO)NC(=O)[C@H]([C@@H](C)O)NC(=O)[C@H](Cc2ccccc2)NC(=O)[C@H]([C@@H](C)O)NC(=O)[C@H](CCCCN)NC(=O)[C@H](Cc2c[nH]c3ccccc23)NC(=O)[C@H](Cc2ccccc2)NC(=O)[C@H](Cc2ccccc2)NC(=O)[C@H](CC(N)=O)NC(=O)[C@H](CCCCN)NC1=O
competition of 10 nM B28 binding (75-95,000 MW glycoprotein): competed out of the binding pocket
